From PubChem BioAssay AID623870 (Broad Institute, 2012) come the findings set out here.

This is a selection; strong and weak results do not stand in their true shares. The source made the active and inactive calls.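 The calls were made as follows: active = mean inhibition of replicates at least 50% and at least half of replicates each reaching 50%; inconclusive = half or more replicates reach 50% but mean below 50%; inactive = the rest.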

In this assay the target is Transforming acidic coiled-coil-containing protein 3 (Homo sapiens) (UniProt Q9Y6A5). As to the kind of experiment: disruptors of ARNT/TACC3 protein interaction, primary screen, biochemical, AlphaScreen, single concentration (AID 623870).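 Also: 0% = complete ARNT plus TACC3 wells and 100% = ARNT alone without TACC3.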 The note with it: AlphaScreen His-ARNT PAS-B/GST-TACC3 binding, luminescence; at 9.99 µM; active compounds read high; TACC3 fragment carries E629A point mutation. Background: In Alpha technology, singlet oxygen from a donor bead excites a nearby acceptor bead.
For `CCCN1CCC(Nc2cc(OC)cc(OC)c2)CC1`, the inhibition is inactive: 42.3%. With `Cc1cc(N(CCCl)CCCl)ccc1C=O`, the inhibition is inactive: -6.13%. With `c1ccc(CN2CCC(Nc3ccccc3)CC2)cc1`, the inhibition is inactive: -12%. As to `CN(C)C1(CNC(=O)c2cccc(C#N)c2)CCCCC1`, the inhibition was inactive: -0.826%. With `CC(C)(C)OC(=O)N1CCC(N(C(=O)c2ccccc2)c2ccc(Cl)cc2)CC1`, the inhibition was inactive: 14.4%.

`N#Cc1ccc(C(=O)NCC2(N3CCCCC3)CCCCC2)cc1`: the inhibition is inactive: -6.71%. In the case of `O=C(OC1CN2CCC1CC2)C1c2ccccc2C=Cc2ccccc21` (configuration not stated) it was inactive: 6.84%; in that of `N/C(=N\O)c1c(N)no[n+]1[O-]`, inactive: 2.71%. Take `CCOC(=O)N1CCC(Nc2ccc(C)cc2)CC1`: the inhibition is inactive: -2.2%.

Regarding `COc1cc(C(=O)NCC2(N3CCOCC3)CCCCC2)cc(OC)c1C`, the inhibition was inactive: -1.63%.

`CN1CCC(Nc2ccc(Cl)cc2)CC1`: the inhibition is inactive: 0.175%. Regarding `CCC(CO)(C(=O)OC1CN2CCC1CC2)c1ccccc1` (configuration not stated), the inhibition is inactive: -0.56%.

Turning to `COc1cc(OC)cc(C(=O)NCC2(N3CCOCC3)CCCCC2)c1`, the inhibition was inactive: -1.22%.

As to `COc1cccc(C(=O)N(c2cc(C)cc(C)c2)C2CCN(C(=O)OC(C)(C)C)CC2)c1`, the inhibition was inactive: -1.52%. Turning to `CCCOc1ccc(C(=O)NCC2(N(C)C)CCCCC2)cc1`, the inhibition was inactive: -14.5%. Next, `O=C(O)C1(Nc2ccccc2)CCN(Cc2ccccc2)CC1`: inactive: -2.32%; `CN1CCC(Nc2ccc(F)c(Cl)c2)CC1`: inactive: -4.44%. For `CCOc1ncccc1C(=O)NCC1(N2CCOCC2)CCCCC1`, the inhibition is inactive: -4.02%. For the compound `CN(C)c1ccc(C(=O)NCC2(N3CCCCC3)CCCCC2)cc1`, the inhibition is inactive: 13.5%.

With `Cn1c(=O)[nH]cc(N(CCCl)CCCl)c1=O`, the inhibition is active: 13.4%.

Turning to `O=C(NCC1(N2CCCCC2)CCCCC1)c1ccco1`, the inhibition is inactive: 2.71%. In the case of `CCN1CCC(Nc2cccc(F)c2)CC1` it was inactive: -9.76%; in that of `Cc1ccccc1NC1(C#N)CCN(Cc2ccccc2)CC1`, inactive: -0.055%. In the case of `Cc1ccc(NC2(C#N)CCN(Cc3ccccc3)CC2)cc1` it was inactive: -1.28%. In the case of `Fc1ccccc1NC1CCN(Cc2ccccc2)CC1` it was inactive: 3.52%. For `Cc1ccc(C(=O)NCC2(N3CCCCC3)CCCCC2)o1`, the inhibition was inactive: 1.74%. In the case of `COc1cc(OC)cc(C(=O)NCC2(N3CCCCC3)CCCCC2)c1` it was inactive: -1.97%.

In the case of `CC(=O)N(c1ccccc1)C1CCNCC1`, the inhibition was inactive: -5.91%. In the case of `CCOC(=O)N1CCC(Nc2cccc(C)c2)CC1`, the inhibition was inactive: 2.83%. In the case of `COc1cc(C(=O)NCC2(N(C)C)CCCCC2)ccc1OC(F)F` it was inactive: 10.2%; in that of `COc1ccc(NC2CCN(CCc3ccccc3)CC2)c(OC)c1`, inactive: -1.66%; in that of `CCOC(=O)N1CCC(Nc2ccc(F)cc2)CC1`, inactive: -13%. With `O=P1(N(CCCl)CCCl)SCCCS1`, the inhibition is inactive: 17.1%.

Turning to `CCCCOc1ccc(C(=O)NCC2(N3CCOCC3)CCCCC2)cc1`, the inhibition is inactive: 1.86%. In the case of `O=C(NCC1(N2CCCCC2)CCCCC1)c1ccc(F)cc1` it was inactive: -4.71%. Next, `CCOc1ccc(C)cc1CN(CCCl)CCCl`: inactive: -1.47%; `O=C1CCN(Cc2ccccc2)CC1`: inactive: -3.63%. For the compound `CCOC(=O)N1CCC(Nc2ccc(OC)cc2)CC1`, the inhibition is inactive: 2.47%. In the case of `N#CC1(Nc2ccccc2)CCN(Cc2ccccc2)CC1` it was inactive: -7.32%; in that of `O=C(OC1CN2CCC1CC2)C1c2ccccc2Oc2ccccc21` (configuration not stated), inactive: 5.36%. In the case of `O=C(NCC1(N2CCOCC2)CCCCC1)c1cc2ccccc2o1` it was inactive: -1.41%; in that of `Cc1cc(C)cc(N(C(=O)c2ccccc2)C2CCN(C(=O)OC(C)(C)C)CC2)c1`, inactive: -0.98%. In the case of `O=C(NCC1(N2CCCCC2)CCCCC1)c1ccc(Cl)nc1`, the inhibition was inactive: 0.734%.

Regarding `Cc1cccc(NC2(C#N)CCN(Cc3ccccc3)CC2)c1`, the inhibition is inactive: -2.55%. Take `CSc1ccccc1C(=O)NCC1(N2CCCCC2)CCCCC1`: the inhibition is inactive: 3.61%. Next, `O=C(NCC1(N2CCCCC2)CCCCC1)c1ccc(=O)[nH]c1`: inactive: -1.5%. In the case of `COc1ccc(C(=O)NCC2(N3CCCCC3)CCCCC2)c(OC)c1OC` it was inactive: -1.39%; in that of `CC(C)(C)OC(=O)N1CCC(N(C(=O)c2ccccc2)c2ccc(F)cc2)CC1`, inactive: -13.2%; in that of `COc1ccc(C(=O)NCC2(N3CCCCC3)CCCCC2)cc1`, inactive: 0.951%.

With `CCCOc1ccc(C(=O)NCC2(N(C)C)CCCCC2)cc1OC`, the inhibition is inactive: 0.716%. As for `CN1CCC(Nc2cccc(F)c2)CC1`, the inhibition is inactive: 16.7%. Next, `O=C(NCC1(N2CCCCC2)CCCCC1)c1cncc(Br)c1`: inactive: 1.46%; `O=C(NCC1(N2CCOCC2)CCCCC1)c1cc(F)c(F)cc1Cl`: inactive: -0.765%. With `COc1cc(OC)c(C(=O)NCC2(N(C)C)CCCCC2)cc1OC`, the inhibition was inactive: -1.48%.

With `CN(C)c1cccc(C(=O)NCC2(N3CCCCC3)CCCCC2)c1`, the inhibition is inactive: 5.64%.

Consider `COc1ccc(CN(CCCl)CCCl)cc1Cl`, for which the inhibition was inactive: 2.98%. Take `CC(C)c1ccc(NC2CCN(C(=O)OC(C)(C)C)CC2)cc1`: the inhibition was inactive: 18.2%. In the case of `CN1CCN(CCOC(=O)C(O)(c2ccccc2)c2ccccc2)CC1`, the inhibition is inactive: -2.81%. Turning to `COc1ccc(NC2CCN(C(=O)OC(C)(C)C)CC2)cc1`, the inhibition is inactive: 2.22%. Next, `CC(C)c1ccc(C(=O)NCC2(N3CCOCC3)CCCCC2)cc1`: inactive: 2.55%; `O=C(NCC1(N2CCOCC2)CCCCC1)c1cc(=O)[nH]c2ccccc12`: inactive: 2.02%; `O=C(NCC1(N2CCCCC2)CCCCC1)c1cccc(C(F)(F)F)c1`: inactive: 2.1%.

Regarding `CSc1ccc(C(=O)NCC2(N3CCOCC3)CCCCC2)cc1`, the inhibition was inactive: 4.64%. For `O=C(NCC1(N2CCCCC2)CCCCC1)c1cccc([N+](=O)[O-])c1`, the inhibition was inactive: 0.847%. In the case of `N#CC1(Nc2ccccc2)CCN(CCc2ccccc2)CC1` it was inactive: -2.67%; in that of `CCN1CCC(Nc2ccc(Cl)cc2)CC1`, inactive: 0.857%. Turning to `O=C(NCC1(N2CCCCC2)CCCCC1)c1ccc(OC(F)F)cc1`, the inhibition was inactive: 4.57%.

Usually inhibition stands for the drop in the measured response relative to a control, in per cent.
